Screening data as filed in PubChem BioAssay.
miR-21 reporter: raises the signal of a miR-21 reporter | HeLa miR-21 FLuc reporter, luciferase, 48 h | Potency, µM (highest dose often 38.3 µM), inactives show at the highest dose reporter change, positive = more light | 340,000 tested, under 10 active | AID 2288; active = well fitted rising curve with a large enough effect; inconclusive = small, poorly fitted or top-dose-only effect; inactive = no such curve, though single readings can be large or run the other way;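 note: % of control where 0% means no effect; miR-21 action dims this reporter so a rising signal means less miR-21 action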
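Luminescence from a firefly luciferase reporter carrying a miR-21 binding site downstream, stably expressed under a CMV promoter in HeLa cells that make miR-21 endogenously, reports miRNA modulation after 48 h compound exposure up to approximately 40uM final.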
TDP1 cell noCPT: qHTS for Inhibitors of human tyrosyl-DNA phosphodiesterase 1 (TDP1): qHTS in cells in absence of CPT. 420,000 tested, 15% active. DT40 Tdp1-/- hTDP1 cells, no CPT, ATP luminescence, 48 h. Potency, µM (highest dose often 46.2 µM), without a hit: at the highest dose activity change, negative = growth inhibition, actives largely listed as inhibitors; further: potency means the concentration at half of the fitted maximal effect; on the % scale 0 is the no-effect control and ±100 the full control effect; nearly all actives have a fitted effect of over 55% in size
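Readout: luminescence from CellTiter-Glo after 30 min in the dark at RT. Cells: DT40 Tdp1-/- with stable hTDP1, 400/well. Exposure: compounds alone, ≥48 hr, 37 °C.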
DT40 TDP1 CPT: growth inhibition of DT40 Tdp1-/-;hTDP1 cells with camptothecin (screen for TDP1 inhibitors) | Potency, µM (series often up to 46.2 µM), without a hit: top-dose activity change, negative = growth inhibition, actives largely listed as inhibitors | AID 686979 | 420,000 tested, 12% active | chicken DT40 Tdp1-/-;hTDP1 cells + 20 nM CPT, ATP luminescence, 48 h; further: potency means the concentration at half of the fitted maximal effect; on the % scale 0 is the no-effect control and ±100 the full control effect; nearly all actives have a fitted effect of over 55% in size
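Cell growth measured by CellTiter-Glo luminescence after a minimum 48 h, 37 C compound exposure with 20 nM CPT in Tdp1-knockout DT40 cells stably expressing hTDP1, seeded 400/well; qHTS titration format.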
TDP1 inh: inhibitors of human tyrosyl-DNA phosphodiesterase TDP1; Q9NUW8; recombinant TDP1, AlphaScreen DNA substrate cleavage; Potency, µM (top dose mostly 130 µM), for inactives: at the top dose activity change, negative = inhibition, actives largely listed as inhibitors; 350,000 tested, 0.28% active; AID 485290; further: potency means the concentration at half of the fitted maximal effect; on the % scale 0 is the no-effect control and ±100 the full control effect; nearly all actives have a fitted effect of over 40% in size
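AlphaScreen read-out: signal falls as enzyme removes the 3' tyrosine-FITC from a 5'-biotinylated DNA oligo (15 nM, 5 min, RT). Enzyme was E. coli-made recombinant Tdp1 at 1 nM, exposed to compound for 15 min beforehand; beads 10 ug/ml, 10 min.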
uPA surface inh: inhibitors of cell surface uPA generation | cell surface uPA generation assay, qHTS | Potency, µM (top dose mostly 38.3 µM), inactives show top-dose activity change, negative = inhibition, most hits filed as inhibitors | 330,000 tested, 0.31% active | AID 540303; active means well fitted inhibition curve with a large enough effect; inconclusive means small, poorly fitted or top-dose-only effect; inactive means no such curve, though single readings can be large or run the other way; tested in mouse RAW 264.7 cells; further: potency means the concentration at half of the fitted maximal effect; on the % scale 0 is the no-effect control and ±100 the full control effect; nearly all actives have a fitted effect of over 55% in size
An asterisk follows results filed as active; ? = inconclusive; · = no result given; [ ] = remark or other dose. Compounds with a hit are over-represented: about 16% of the library has one in this group of screens. Unless noted, the call rests on the fitted dose curve; in most records, active means well fitted curve in the direction sought with a large enough effect; inconclusive means small, poorly fitted or top-dose-only effect, or another doubt; inactive means no such curve, though single readings can be large; an effect the other way counts as inactive or inconclusive.

The line under a structure holds: miR-21 reporter	TDP1 cell noCPT	DT40 TDP1 CPT	TDP1 inh	uPA surface inh
Fc1ccccc1N1CCN(c2c3c(nc4nncn24)CCC3)CC1
  4%	21µM*	?	2%	·
COc1ccccc1N1CCN(c2c3c(nc4nncn24)CCC3)CC1
  2%	4%	-1%	5%	·
CCOP(=O)(OCC)c1nc(-c2ccc(Cl)cc2Cl)oc1N1CCCCC1
  -4%	18µM*	12µM*	3%	3%
Cc1sc2ccccc2[n+]1CCC[n+]1c(C)sc2ccccc21
  ·	1.8µM*	2µM*	·	·
Cc1sc2ccccc2[n+]1CC(=O)c1ccc(F)cc1
  ·	-3%	0%	·	·
Cc1sc2ccccc2[n+]1CC(=O)c1ccccc1
  -7%	18µM*	?	·	-30%
O=C(C[n+]1c(Cl)cc(Cl)c2ccccc21)c1ccccc1
  ·	6.3µM*	4.5µM*	·	·
CC(=O)N1N=C(c2ccncc2)OC12CCCC2
  -2%	-9%	-7%	6%	0%
CCCn1c(SCC(=O)Nc2ccc(OC)cc2[N+](=O)[O-])n[nH]c1=O
  0%	-13%	-11%	4%	-2%
N#Cc1cccc(-c2nc(N3CCNCC3)c3ccccc3n2)c1
  ·	18µM*	?	-3%[56.1 µM]	·

Record cards (already shown). Order of values: miR-21 reporter	TDP1 cell noCPT	DT40 TDP1 CPT	TDP1 inh	uPA surface inh
Entry for CCCn1c(SCC(=O)Nc2ccc(OC)cc2[N+](=O)[O-])n[nH]c1=O → 0%	-13%	-11%	4%	-2%
Entry for N#Cc1cccc(-c2nc(N3CCNCC3)c3ccccc3n2)c1 → ·	18µM*	?	-3%[56.1 µM]	·
Entry for Cc1sc2ccccc2[n+]1CC(=O)c1ccccc1 → -7%	18µM*	?	·	-30%
Entry for COc1ccccc1N1CCN(c2c3c(nc4nncn24)CCC3)CC1 → 2%	4%	-1%	5%	·
Entry for Cc1sc2ccccc2[n+]1CC(=O)c1ccc(F)cc1 → ·	-3%	0%	·	·

(cont.)
The line under a structure holds: miR-21 reporter	TDP1 cell noCPT	DT40 TDP1 CPT	TDP1 inh	uPA surface inh
c1ccc2c(N3CCNCC3)nc(-c3ccc4c(c3)OCO4)nc2c1
  ·	21µM*	?	10%[56.1 µM]	·
CS(=O)(=O)Nc1cccc(-c2nc(N3CCNCC3)c3ccccc3n2)c1
  ·	?	?	7%[56.1 µM]	·
Cc1ccc2ncccc2c1
  ·	-10%	-5%	0%	2%
c1cnc2ccc(-c3ccc4ncccc4c3)cc2c1
  -22%	4.1µM*	?	·	-16%
O=C(Nc1ccc2ncccc2c1)Nc1ccc2ncccc2c1
  -40%	8.2µM*	21µM*	·	7%
COc1ccc(NC(C)=O)cc1NC(C)C(=O)Nc1cc(C(F)(F)F)ccc1N1CCOCC1 (stereo not given)
  -10%	?	-18%	1%	-3%
Cn1c(CC(=O)Nc2ccccc2)cc2ccccc21
  -28%	?	7.3µM*	·	4.5µM*
Cn1c(=O)n(CC(=O)Nc2ccccc2)c2ccccc21
  0%	-19%	-16%	2%	1%
CSc1c(CC(=O)Nc2ccccc2)n(C)c2ccccc12
  18%	?	15µM*	·	?
CCN(CC)c1ccc(NC(=O)Cn2ncc3c(C)n(Cc4ccccc4F)c(C)c3c2=O)c(C)c1
  -1%	21µM*	?	8%	6%
COC(=O)c1ccccc1NC(=O)Cn1ncc2c(C)n(Cc3ccc(F)cc3)c(C)c2c1=O
  0%	?	21µM*	3%	·
CCN(CC)c1ccc(NC(=O)CN2C(=O)CC(C)(C)S(=O)(=O)c3ccccc32)c(C)c1
  -7%	16µM*	15µM*	8%	2%
CCOC(=O)CCCCCNC(=O)c1ccc(F)cc1F
  ·	0%	3%	·	5%
COc1cc2nc(C3CCC3)nc(N3CCN(c4ccccc4OC)CC3)c2cc1OC
  2%	16µM*	16µM*	8%	-11%
COc1cc2nc(C3CCC3)nc(N3CCN(c4ccccn4)CC3)c2cc1OC
  -19%	9.2µM*	9.2µM*	5%	3%
CCCS(=O)(=O)NC(=O)C1(C)CCN(C(=O)Cc2cccc3ccccc23)C1 (stereo not given)
  ·	-8%	-4%	·	·
Cc1ccc(-n2c(=O)[nH]c3c(C(N)=O)nc(-c4ccc(C)o4)nc32)cc1
  -11%	13µM*	9.2µM*	-6%	6%
CCc1ccc(NS(=O)(=O)c2c(C)nc3sc(CC)nn3c2=O)cc1
  5%	13µM*	?	-2%[12.3 µM]	3%
CCc1nn2c(=O)c(S(=O)(=O)Nc3ccc(C)c(C)c3)c(C)nc2s1
  5%	23µM*	?	0%	·
CCc1nn2c(=O)c(S(=O)(=O)Nc3ccccc3)c(C)nc2s1
  10%	-21%	-10%	·	-2%
CCOc1ccc(NS(=O)(=O)c2c(C(=O)N3CCCCCC3)c(C)n(C)c2C)cc1
  0%	?	?	5%	-18%
CCOc1ccc(NS(=O)(=O)c2c(C)nc3sc(C)c(C)n3c2=O)cc1
  -1%	?	18µM*	5%	·
